In patent publication US20200297862A1, “METHODS OF USING BISPECIFIC ANTIGEN-BINDING CONSTRUCTS TARGETING HER2” (Zymeworks Inc., priority 2016, published 2020):
“And” between values parts separate entries of the source, which are not always exact repeats. Identical values can stand only once. Like-named read-outs stand apart in the source and are kept apart here.

How the values were obtained:
[1] = test system: JIMT-1 cells; assay: Binding to HER2+ cells by flow cytometry (FACS): Bmax and apparent KD; set-up: species or system human
Description: (§1) The following experiment was performed to measure the ability of an exemplary biparatopic anti-HER2 antibody to bind to cells expressing varying levels of HER2 in comparison to controls. […] The ability of the biparatopic anti-HER2 antibodies to bind to the HER2 expressing (HER2+) cells was determined as described below, with specific measurement of Bmax and apparent KD (equilibrium dissociation constant).
(§2) Binding of the test antibodies to the surface of HER2+ cells was determined by flow cytometry. Cells were washed with PBS and resuspended in DMEM at 1×10^5 cells/100 μl. 100 μl cell suspension was added into each microcentrifuge tube, followed by 10 μl/tube of the antibody variants. The tubes were incubated for 2 hr 4° C. on a rotator. The microcentrifuge tubes were centrifuged for 2 min 2000 RPM at room temperature and the cell pellets washed with 500 μl media. Each cell pellet was resuspended 100 μl of fluorochrome-labelled secondary antibody diluted in media to 2 μg/sample. The samples were then incubated for 1 hr at 4° C. on a rotator. After incubation, the cells were centrifuged for 2 min at 2000 rpm and washed in media. The cells were resuspended in 500 μl media, filtered in tube containing 5 μl propidium iodide (PI) and analyzed on a BD LSR II flow cytometer according to the manufacturer's instructions. The KD of exemplary biparatopic anti-HER2 heterodimer antibody and control antibodies were assessed by FACS with data analysis and curve fitting performed in GraphPad Prism.

[2] = test system: MCF7 cells; assay: as above; set-up: species or system human; conditions: for Kd: apparent KD
Description: as §1, §2

[3] = test system: WI-38 cells; assay: Binding to basal HER2 cells by flow cytometry (FACS); set-up: species or system human; conditions: Table 10, FIG. 6G
Description: as §2

[4] = test system: BT-474 cells; assay: Growth inhibition of HER2+ cells (cell viability); type: cell-based, human; conditions: 200 nM antibody, 3 days; Table 11A
Description: The ability of an exemplary biparatopic anti-HER2 antibody to inhibit growth of cells expressing HER2 at the 3+ and 2+ level was measured. […] The ability of the biparatopic anti-HER2 antibodies to inhibit the growth of BT-474 cells (200 nM antibody); SKOV3, SKBr3 and JIMT-1 cells (300 nM antibody) was measured as described below.
Test antibodies were diluted in media and added to the cells at 10 μl/well in triplicate. The plates were incubated for 3 days 37° C. Cell viability was measured using either AlamarBlue™ (Biosource # dal1100), or Celltiter-Glo® and absorance read as per the manufacturer's instructions. Data was normalized to untreated control and analysis was performed in GraphPad prism.

[5] = test system: SKBr3 cells; assay: Growth inhibition of HER2+ cells (cell viability); type: cell-based, human; conditions: 300 nM antibody, 3 days; Table 11B
[6] = test system: JIMT-1 cells; assay: Growth inhibition of HER2+ cells (cell viability); type: cell-based, human; conditions: 300 nM antibody, 3 days; Table 11B
[7] = test system: BT-474 cells; assay: Whole cell loading and internalization (AlexaFluor 488 labelled antibody, flow cytometry); type: cell-based, human
[8] = test system: MCF7 cells; assay: as above; type: cell-based, human; conditions: 200 nM labelled antibody, Table 41
[9] = test system: JIMT-1 cells; assay: Cellular staining and location by confocal microscopy at 1, 3 and 16 h; type: cell-based, human; conditions: 200 nM antibody, 1 h, 3 h
Description: This experiment was performed to analyze internalization of the exemplary anti-HER2 biparatopic antibody in HER2+ JIMT-1 cells at different time points and as an orthogonal method to that presented in Example 9 to analyze whole cell loading and internalization.
Cells were gently washed two times with warmed sterile PBS ([…]/well). Cells were fixed with 250 ml of 10% formalin/PBS solution for 10 min at RT. The fixed cells were washed three times with PBS (500 μl/well), permeabilized with 250 μl/well of PBS containing 0.2% Triton X-100 for 5 min, and washed three times with 500 μl/well PBS. Cells were blocked with 500 μl/well of PBS+5% goat serum for 1 h at RT. Blocking buffer was removed, and 300 μl/well secondary antibody (Alexa Fluor 488-conjugated AffiniPure Fab Fragment Goat anti-Human IgG (H+L); Jackson ImmunoResearch Laboritories, Inc.; 109-547-003) was incubated for 1 h at RT. Cells were washed three times with 500 μl/well of PBS and the coverslips containing fixed cells were then mounted on a slide using Prolong gold anti-fade with DAPI (Life Technologies; # P36931). 60× single images were acquired using Olympus FV1000 Confocal microscope.

[10] = test system: SKOV3 xenograft; assay: Human ovarian cancer cell xenograft model, antibody (Example 16); type: in vivo, athymic nude mice
[11] = test system: JIMT-1 cells; assay: ADCC, NK effector cells E:T 5:1; type: cell-based, human
Description: Target cells were pre-incubated with test antibodies (10-fold descending concentrations from 45 μg/ml) for 30 min followed by adding effector cells with effector/target cell ratio of 5:1 and the incubation continued for 6 hours at 37° C.+5% CO2. Samples were tested with 8 concentrations, 10 fold descending from 45 μg/ml. LDH release was measured using LDH assay kit.
Dose-response studies were performed with various concentrations of the samples with a effector/target (E/T) ratios of 5:1. 3:1 and 1:1. Half maximal effective concentration (EC50) values were analyzed with the sigmoidal dose-response non-linear regression fit using GraphPad prism.
The ADCC experiments were performed as described in Example 11 with the exception that NK effector cell to target cell ratio remained constant at 5:1.
The ADCC experiment was conducted as described in Example 11 with E/T: 5:1 with NK-92 effector cells. FIG. 43A and Table 43 show the ADCC results in HER2 2+ JIMT-1 breast tumor cells.

[12] = test system: MDA-MB-231 cells; assay: ADCC, NK effector cells E:T 5:1; type: cell-based, human
[13] = 200 nM labelled antibody, 24 h at 37° C., Table 39

**Q.** What does the source list for “v5019: biparatopic anti-HER2 antibody, Fab-scFv: pertuzumab Fab (ECD2) chain A, trastuzumab scFv (ECD4) chain B, heterodimeric Fc”?
**A.** Bmax ([1]; Table 6, FIG. 6B): 7203; Bmax ([1]; Table 36): 4690; Kd ([1]; apparent KD, Table 6, FIG. 6B): 4.32 nM; Bmax ([2]; Table 7, FIG. 6C): 872; Bmax ([2]; Table 8, FIG. 6F): 968; Kd ([2]; Table 7, FIG. 6C): 1.51 nM; Kd ([2]; Table 37): 6.3 nM; Bmax [3]: 380; Kd ([3]; apparent KD): 7 nM; % Survival BT-474 HER2 3+ [4]: 43%; % Survival SKBr3 HER2 3+ [5]: 59%; % Survival JIMT-1 HER2 2+ [6]: 106%; Surface 4° C. ([7]; 200 nM labelled antibody, 2 h at 4° C., Table 39): 2867; Internal 37° C. [7, 13]: 5710; Surface 37° C. [7, 13]: 2675; reduction of antibody detected on the surface of whole cells ([7]; 24 h at 37° C. vs 2 h at 4° C.): ~15%; Surface 4° C. ([8]; 2 h at 4° C.): 81; Internal 37° C. ([8]; 24 h at 37° C.): 134; Surface 37° C. ([8]; 24 h at 37° C.): 17; cellular staining and location [9]: internalized into JIMT-1 cells at 3 h; % TGI ([10]; Day 22): 63%; Responders (TV < 50% of control) ([10]; Day 22): 11/15; Mean TV % change from Baseline ([10]; Day 22, n = 15): +217%; Mean TV (mm3) ([10]; Day 22, n = 15): 697 mm3; Median Survival ([10]; mouse, in vivo): 61 days; JIMT-1 HER2 2+ Max % Target Cell Lysis ([11]; NK E:T 5:1, Table 23): 60%; EC50 ([11]; NK E:T 5:1, Table 23, read-out: JIMT-1 HER2 2+ EC50): 0.001 nM; % Max Cell Lysis ([11]; NK-92 E/T 5:1, Table 43): 47%; EC50 ([11]; NK-92 E/T 5:1, Table 43, read-out: EC50): ~0.16 nM; MDA-MB-231 HER2 0/1+ Max % Target Cell Lysis ([12]; NK E:T 5:1, Table 23): 53%; % Max Cell Lysis(top only) ([12]; NK-92 E/T 5:1, Table 45): 77% and 71%; EC50 ([12]; NK-92 E/T 5:1, Table 45, read-out: EC50): 0.2 nM; EC50 ([12]; read-out: MDA-MB-231 HER2 0/1+ EC50, NK E:T 5:1, Table 23): 0.9 nM
